Results as given in publication doi:10.1101/2024.06.13.594677v1 (biorxiv, 2024).

The chains behind the UniProt entries cited, without tags or fusion partners.
UniProt P28223, whole entry: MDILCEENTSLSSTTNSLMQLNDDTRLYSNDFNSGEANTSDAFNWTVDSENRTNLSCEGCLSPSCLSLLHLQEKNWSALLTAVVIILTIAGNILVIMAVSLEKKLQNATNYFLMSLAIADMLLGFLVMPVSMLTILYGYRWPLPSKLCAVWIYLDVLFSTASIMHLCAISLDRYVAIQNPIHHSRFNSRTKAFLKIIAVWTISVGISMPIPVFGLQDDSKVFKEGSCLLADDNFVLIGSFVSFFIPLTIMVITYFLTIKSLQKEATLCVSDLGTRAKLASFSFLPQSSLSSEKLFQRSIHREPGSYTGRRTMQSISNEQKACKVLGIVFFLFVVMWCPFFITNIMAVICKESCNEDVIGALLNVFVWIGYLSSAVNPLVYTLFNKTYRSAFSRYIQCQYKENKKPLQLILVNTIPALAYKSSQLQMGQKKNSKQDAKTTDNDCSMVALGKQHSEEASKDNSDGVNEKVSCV

Target: human 5-HT2A receptor (Homo sapiens, UniProt P28223)
Set-up: species or system SH-SY5Y expressing human 5-HT2A
Settings: agonist

For `CCN(CC)C(=O)[C@@H]1C=C2c3cccc4[nH]cc(c34)C[C@H]2N(C)C1` [LSD], the “β-arrestin2 Emax” value was 0.44 ± 0.019.
